Patent US9561231B2 (AbbVie Inc., priority 2012, dated 2017)

Legend:
[1] = molecular target: T1, second (BD2: amino acids E352-E168) bromodomain of BRD4 (Homo sapiens, UniProt O60885); assay: TR-FRET bromodomain binding assay, BRD4 BD2; conditions: TR-FRET assay protocol (A-G, compound concentration range); Ki calculated from IC50, probe Kd and probe concentration; read-out: TR-FRET Binding Ki: BRD4 (BDII_E352-M457)
T1 construct: protocol
Protocol: (§1) A time-resolved fluorescence resonance energy transfer (TR-FRET) assay was used to determine the affinities of compounds of the Examples listed in Table 1 for each bromodomain of BRD4. His-tagged first (BD1: amino acids K57-E168) and second (BD2: amino acids E352-E168) bromodomains of BRD4 were expressed and purified. An Alexa647-labeled BET-inhibitor was used as the fluorescent probe in the assay.
(§2) Compound dilution series were prepared in DMSO via an approximately 3-fold serial dilution from one of the following:
(§3) or 5-fold serial dilution from one of the following:
(§4) Assay method A: 2.5 mM-800 nM
(§5) For Assay methods A, C, D, and F: Compounds were then diluted 6:100 in assay buffer (20 mM Sodium Phosphate, pH 6.0, 50 mM NaCl, 1 mM Ethylenediaminetetraacetic acid, 0.01% Triton X-100, 1 mM DL-Dithiothreitol) to yield 3× working solutions. […] of this solution were added to the assay plate to reach a final volume of 18 μL.
(§6) TR-FRET data were normalized to the means of 24 no-compound controls (“high”) and 8 controls containing 1 μM un-labeled probe (“low”). Percent inhibition was plotted as a function of compound concentration and the data were fit with the 4 parameter logistic equation to obtain IC50s. Inhibition constants (Ki) were calculated from the IC50s, probe Kd and probe concentration. Typical Z′ values were between 0.65 and 0.75.

[2] = molecular target: T2, first (BD1: amino acids K57-E168) bromodomain of BRD4 (Homo sapiens, UniProt O60885); assay: TR-FRET bromodomain binding assay, BRD4 BD1; conditions: TR-FRET assay protocol (A-G, compound concentration range); Ki calculated from IC50, probe Kd and probe concentration; read-out: TR-FRET Binding Ki: BRD4 (BDI_K57-E168)
T2 construct: His-tagged first (BD1: amino acids K57-E168)
Protocol: as §1, §2, §3, §4, §5, §6

[3] = system: breast cancer cell line MX-1; assay: MX-1 cell line proliferation assay (3-day); type: cell-based; conditions: MX-1 cells, 72 h incubation, Cell Titer Glo; read-out: Cellular proliferation: EC50
Protocol: The impact of compounds of the Examples on cancer cell proliferation was determined using the breast cancer cell line MX-1 (ATCC) in a 3-day proliferation assay. MX-1 cells were maintained in RPMI supplemented with 10% FBS at 37° C. and an atmosphere of 5% CO2. For compound testing, MX-1 cells were plated in 96-well black bottom plates at a density of 5000 cells/well in 90 μL of culture media and incubated at 37° overnight to allow cell adhesion and spreading. Compound dilution series were prepared in DMSO via a 3-fold serial dilution from 3 mM to 0.1 μM. The DMSO dilution series were then diluted 1:100 in phosphate buffered saline, and 10 μL of the resulted solution were added to the appropriate wells of the MX-1 cell plate. The final compound concentrations in the wells were 3, 1, 0.3, 0.1, 0.03, 0.01, 0.003, 0.001, 0.0003 and 0.0001 μM.
Luminescence readings from the Cell Titer Glo assay were normalized to the DMSO treated cells and analyzed using the GraphPad Prism software with sigmoidal curve fitting to obtain EC50s.

Row | Structure (SMILES) | Ki [1] | Ki [2] | EC50 [3]
1 | COc1cc(=O)n(C)nc1-c1ccccc1Oc1ccccc1 [Example 18, 5-methoxy-2-methyl-6-(2-phenoxyphenyl)pyridazin-3(2H)-one] | 523 nM | 1650 nM | 
2 | CCOc1cc(=O)n(C)cc1-c1cc(NS(=O)(=O)CC)ccc1Oc1ccc(F)cc1F [Example 285, N-[4-(2,4-difluorophenoxy)-3-(4-ethoxy-1-methyl-6-oxo-1,6-dihydropyridin-3-yl)phenyl]ethanesulfonamide] | 1.03 nM | 4.9 nM | 
3 | [2H]C([2H])(C)Oc1cc(=O)n(C)cc1-c1cc(NS(=O)(=O)CC)ccc1Oc1ccc(F)cc1F [Example 333, N-[4-(2,4-difluorophenoxy)-3-{4-[(1,1-^2H2)ethyloxy]-1-methyl-6-oxo-1,6-dihydropyridin-3-yl}phenyl]ethanesulfonamide] | 1.83 nM | 4.41 nM | 27.7 nM
4 | [2H]C([2H])([2H])C([2H])([2H])Oc1cc(=O)n(C)cc1-c1cc(NS(=O)(=O)CC)ccc1Oc1ccc(F)cc1F [Example 334, N-[4-(2,4-difluorophenoxy)-3-{4-[(^2H5)ethyloxy]-1-methyl-6-oxo-1,6-dihydropyridin-3-yl}phenyl]ethanesulfonamide] | 4.08 nM | 27.6 nM | 15.2 nM
